{"sequences": {"note": "Sequences of proteins named here, by UniProt entry; tags and fusion partners are left off. Residues count along the entry.", "UniProt P43220, 24-463": "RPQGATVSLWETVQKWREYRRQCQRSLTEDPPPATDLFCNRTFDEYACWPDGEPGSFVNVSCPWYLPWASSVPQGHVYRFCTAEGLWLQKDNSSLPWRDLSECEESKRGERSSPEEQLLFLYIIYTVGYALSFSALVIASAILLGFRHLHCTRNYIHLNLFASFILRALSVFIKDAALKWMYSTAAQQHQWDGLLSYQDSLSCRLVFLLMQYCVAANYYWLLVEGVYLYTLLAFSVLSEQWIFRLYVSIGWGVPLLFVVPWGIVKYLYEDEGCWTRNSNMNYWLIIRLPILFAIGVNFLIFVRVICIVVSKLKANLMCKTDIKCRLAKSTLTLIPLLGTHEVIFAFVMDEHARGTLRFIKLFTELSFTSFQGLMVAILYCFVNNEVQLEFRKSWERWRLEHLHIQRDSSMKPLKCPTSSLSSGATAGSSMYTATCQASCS"}, "source": "paper PMC8881610", "about": "(Nature Communications, 2022)", "molecular_target": "GLP-1R (Homo sapiens, UniProt P43220)", "assay": "Whole-cell binding assay, competition with 125I-GLP-1(7-36)NH2", "parameters": "Flag; expressed in transfected cells", "details": "CHO-K1", "method": "Human embryonic kidney 293 cells containing SV40 large T-antigen (HEK293T) were cultured in DMEM (Gibco) supplemented with 10% (v/v) fetal bovine serum (FBS, Gibco), 1 mM sodium pyruvate (Gibco) and 100 units/mL penicillin and 100 μg/mL streptomycin at 37 °C in 5% CO2. Chinese hamster ovary (CHO-K1) cells were cultured in F-12 (Gibco) containing 10% FBS, 100 units/mL penicillin and 100 μg/mL streptomycin at 37 °C in 5% CO2. For cAMP and receptor expression assays, HEK293T cells were seeded into 6-well cell culture plates at a density of 7 × 10^5 cells per well. After overnight incubation, cells were transfected with GIPR, GLP-1R or GCGR construct using Lipofectamine 2000 or Lipofectamine 3000 transfection reagent (Invitrogen). For whole-cell binding assay, CHO-K1 cells were seeded into 96-well fibronectin-treated cell culture plates at a density of 3 × 10^4 cells per well. After overnight incubation, cells were transfected with GIPR, GLP-1R or GCGR construct using Lipofectamine 2000 transfection reagent (Invitrogen). Following 24 h culturing, the transfected cells were ready for use.\nFor GLP-1R and GCGR, CHO-K1 cells (30,000 cells/well) were seeded into Isoplate-96 plates and incubated for 24 h at 37 °C in 5% CO2. The WT or mutant constructs were transiently transfected using Lipofectamine 2000 transfection reagent as previous described. They were then washed twice using F-12 with 0.1% BSA or 0.1% casein, 33 mM HEPES, and incubated for 2 h at 37 °C. […] Cells were washed three times with ice-cold PBS and lysed in PBS with 1% Triton X-100, 20 mM Tris-HCl. After addition of scintillation cocktail (PerkinElmer), radioactivity (CPM) was counted on a MicroBeta^2 microplate counter (PerkinElmer). Data were normalized to the WT response and analyzed using three-parameter logistic equation.", "data": [{"smiles": "CC[C@H](C)[C@H](NC(=O)[C@H](CC(C)C)NC(=O)[C@H](Cc1c[nH]c2ccccc12)NC(=O)[C@H](CCC(N)=O)NC(=O)[C@@H](NC(=O)[C@H](Cc1ccccc1)NC(=O)[C@H](C)NC(=O)[C@H](CCCCNC(=O)COCCOCCNC(=O)COCCOCCNC(=O)CC[C@H](NC(=O)CCCCCCCCCCCCCCCCCCC(=O)O)C(=O)O)NC(=O)[C@H](CCC(N)=O)NC(=O)[C@H](C)NC(=O)[C@@H](NC(=O)[C@H](CCCCN)NC(=O)[C@H](CC(=O)O)NC(=O)[C@H](CC(C)C)NC(=O)C(C)(C)NC(=O)[C@@H](NC(=O)[C@H](CO)NC(=O)[C@H](Cc1ccc(O)cc1)NC(=O)[C@H](CC(=O)O)NC(=O)[C@H](CO)NC(=O)[C@@H](NC(=O)[C@H](Cc1ccccc1)NC(=O)[C@@H](NC(=O)CNC(=O)[C@H](CCC(=O)O)NC(=O)C(C)(C)NC(=O)[C@@H](N)Cc1ccc(O)cc1)[C@@H](C)O)[C@@H](C)O)[C@@H](C)CC)[C@@H](C)CC)C(C)C)C(=O)N[C@@H](C)C(=O)NCC(=O)NCC(=O)N1CCC[C@H]1C(=O)N[C@@H](CO)C(=O)N[C@@H](CO)C(=O)NCC(=O)N[C@@H](C)C(=O)N1CCC[C@H]1C(=O)N1CCC[C@H]1C(=O)N1CCC[C@H]1C(=O)N[C@@H](CO)C(N)=O", "note": "[Tirzepatide]", "values": [{"measurement": "binding Span", "setting": "GLP-1R WT, 0.1% casein", "value": "91.41 ± 8.36"}, {"measurement": "binding Span", "setting": "GLP-1R WT", "value": "77.63 ± 5.70", "unit": "% WT"}, {"measurement": "binding Span", "setting": "GLP-1R, effect of tirzepatide acylation", "value": "82.07 ± 6.37 % WT or Tirzepatide"}]}]}
